{
  "source": "patent US10058100B2",
  "about": "“Hydrogen sulfide releasing compounds and their use” (THE UNIVERSITY OF EXETER, priority 2011, dated 2018)",
  "system": "Human brain microvascular endothelial cells (HMEC)",
  "data": [
    {"substance": "morpholin-4-ium 4-methoxyphenyl(morpholino) phosphinodithioate [GYY4137, reference compound]", "values": [
      {"measurement": "H2O2-induced cytotoxicity", "value": "inhibited"}
    ]}
  ]
}
